Reference: EP4837910A1, “ISOXAZOLINE COMPOUND AND PREPARATION METHOD THEREFOR, HERBICIDAL COMPOSITION, AND USE” (dated 2026)

Legend:
[1] = tested on: Monocotyledonous and dicotyledonous weed; assay: Post-emergence test on weeds (greenhouse, spray tower); details: after 3 weeks of cultivation in a greenhouse, fresh weight control rate
[2] = tested on: Monocotyledonous and dicotyledonous weed; assay: Pre-emergence test on weeds (greenhouse, sprayed immediately after sowing); details: fresh weight control rate; for activity level of plant damage (growth control rate), Descurainia sophia / activity level of plant damage (growth control rate), Digitaria sanguinalis / activity level of plant damage (growth control rate), Lolium multiflorum / activity level of plant damage (growth control rate), Setaria viridis: Dosage 240 g a.i./ha, after 4 weeks in greenhouse; for activity level of plant damage (growth control rate), Zea mays: crop Zea mays
[3] = sprayed immediately after sowing, 240 g a.i./ha, observed after 4 weeks in greenhouse

For `C=C[C@]1(C(=O)N[C@@H](C)C(=O)N(C)OC)CC(c2cc(F)cc(C(F)(F)F)c2)=NO1`, the “Avena fatua, activity level of plant damage (growth control rate)” value (from here on “Avena fatua, activity level”) ([1]; Dosage 240 g a.i./ha) was 9, the “activity level of plant damage (growth control rate), Descurainia sophia” value (“activity level … Descurainia sophia” for short) [2] was 6 (Level 6: growth control rate greater than or equal to 70% and less than 80%) and the “activity level of plant damage (growth control rate), Digitaria sanguinalis” value [2] was 9. For the same molecule, the “activity level of plant damage (growth control rate), Lolium multiflorum” value ([2]; Lolium multiflorum) was 9 and the “activity level of plant damage (growth control rate), Setaria viridis” value (from here on “activity level of plant damage … Setaria viridis”) [2] was 9.
`C=C[C@]1(C(=O)N[C@@H](C)C(=O)N(CC)OC)CC(c2cc(F)cc(F)c2)=NO1` was tested, and the “Avena fatua, activity level” value ([1]; Dosage 240 g a.i./ha) was 9, the “Digitaria sanguinalis, activity level of plant damage (growth control rate)” value (“Digitaria sanguinalis, activity level” for short) ([1]; Dosage 240 g a.i./ha) was 5 (Level 5: growth control rate greater than or equal to 50% and less than 70%) and the “activity level … Descurainia sophia” value [2] was 7 (Level 7: growth control rate greater than or equal to 80% and less than 90%). The “activity level of plant damage (growth control rate), Digitaria sanguinalis” value [2] was 9, the “activity level of plant damage (growth control rate), Lolium multiflorum” value ([2]; Lolium multiflorum) was 9 and the “activity level of plant damage … Setaria viridis” value [2] was 9.
With `C=C(C)[C@@]1(C(=O)N[C@@H](C)C(=O)N(C)OC)CC(c2cc(F)cc(Br)c2)=NO1` the “Digitaria sanguinalis, activity level” value ([1]; Dosage 240 g a.i./ha) was 6 (Level 6: growth control rate greater than or equal to 70% and less than 80%), the “Echinochloa crus-galli, activity level of plant damage (growth control rate)” value (shortened to “Echinochloa crus-galli, activity level”) ([1]; Dosage 240 g a.i./ha) was 5 (Level 5: growth control rate greater than or equal to 50% and less than 70%) and the “activity level … Descurainia sophia” value [2] was 9. For the same molecule, the “activity level of plant damage (growth control rate), Digitaria sanguinalis” value [2] was 9, the “activity level of plant damage (growth control rate), Lolium multiflorum” value ([2]; Lolium multiflorum) was 8 (Level 8: growth control rate greater than or equal to 90% and less than 100%) and the “activity level of plant damage … Setaria viridis” value [2] was 9.
For `CC(NC(=O)C1(C)CC(c2ccc(F)c(Cl)c2)=NO1)C(=O)N(C)C` (centres unmarked), the “Amaranthus retroflexus, activity level of plant damage (growth control rate)” value ([1]; Dosage 60 g a.i./ha) was 0, the “Avena fatua, activity level” value ([1]; Dosage 60 g a.i./ha) was 0 and the “Digitaria sanguinalis, activity level” value ([1]; Dosage 60 g a.i./ha) was 0. The “Echinochloa crus-galli, activity level” value ([1]; Dosage 60 g a.i./ha) was 0, the “activity level (growth control rate), Digitaria sanguinalis” value [2, 3] was 1 (Level 1: growth control rate less than 10%) and the “activity level (growth control rate), Lolium multiflorum” value ([2]; Lolium multiflorum, sprayed immediately after sowing, 240 g a.i./ha, observed after 4 weeks in greenhouse) was 2 (Level 2: growth control rate greater than or equal to 10% and less than 20%). For the same molecule, the “activity level (growth control rate), Setaria viridis” value [2, 3] was 1 (Level 1: growth control rate less than 10%), the “activity level of plant damage (growth control rate), Triticum aestivum” value ([2]; crop Triticum aestivum, sprayed immediately after sowing, 240 g a.i./ha, observed after 4 weeks in greenhouse) was 0 and the “activity level of plant damage (growth control rate), Zea mays” value (shortened to “activity level of plant damage … Zea mays”) [2, 3] was 0.
`C=C(C)[C@]1(C(=O)N[C@@H](C)C(=O)NOC2CCC2)CC(c2cc(F)cc(F)c2)=NO1` was tested, and the “Digitaria sanguinalis, activity level” value ([1]; Dosage 60 g a.i./ha) was 8 (Level 8: growth control rate greater than or equal to 90% and less than 100%), the “Echinochloa crus-galli, activity level” value ([1]; Dosage 60 g a.i./ha) was 8 (Level 8: growth control rate greater than or equal to 90% and less than 100%) and the “activity level (growth control rate), Digitaria sanguinalis” value [2, 3] was 9. For the same molecule, the “activity level (growth control rate), Setaria viridis” value [2, 3] was 9.
`C=C(C)[C@]1(C(=O)N[C@H](C(=O)NOC)C2CC2)CC(c2cc(Cl)cc(Cl)c2)=NO1` was tested, and the “Digitaria sanguinalis, activity level” value ([1]; Dosage 60 g a.i./ha) was 8 (Level 8: growth control rate greater than or equal to 90% and less than 100%), the “Echinochloa crus-galli, activity level” value ([1]; Dosage 60 g a.i./ha) was 6 (Level 6: growth control rate greater than or equal to 70% and less than 80%) and the “activity level (growth control rate), Digitaria sanguinalis” value [2, 3] was 9. The “activity level (growth control rate), Setaria viridis” value [2, 3] was 9 and the “activity level of plant damage … Zea mays” value [2, 3] was 0.
`C=C(C)[C@]1(C(=O)N[C@@H](C)C(=O)NOCCCl)CC(c2cc(F)cc(F)c2)=NO1` was tested, and the “Digitaria sanguinalis, activity level” value ([1]; Dosage 60 g a.i./ha) was 8 (Level 8: growth control rate greater than or equal to 90% and less than 100%), the “Echinochloa crus-galli, activity level” value ([1]; Dosage 60 g a.i./ha) was 9 and the “activity level … Descurainia sophia” value [2] was 9. The “activity level of plant damage (growth control rate), Digitaria sanguinalis” value [2] was 9, the “activity level of plant damage (growth control rate), Lolium multiflorum” value ([2]; Lolium multiflorum) was 9 and the “activity level of plant damage … Setaria viridis” value [2] was 9.
For `C=C(C)[C@]1(C(=O)NCC(=O)NOCC)CC(c2cc(F)cc(F)c2)=NO1`, the “Digitaria sanguinalis, activity level” value ([1]; Dosage 60 g a.i./ha) was 8 (Level 8: growth control rate greater than or equal to 90% and less than 100%), the “Echinochloa crus-galli, activity level” value ([1]; Dosage 60 g a.i./ha) was 9 and the “activity level of plant damage (growth control rate), Digitaria sanguinalis” value [2] was 9. The “activity level of plant damage (growth control rate), Lolium multiflorum” value ([2]; Lolium multiflorum) was 9 and the “activity level of plant damage … Setaria viridis” value [2] was 9.
In the case of `C=C(C)[C@]1(C(=O)N[C@@H](C)C(=O)NOCC(=O)N2CCCO2)CC(c2cc(F)cc(F)c2)=NO1`, the “Digitaria sanguinalis, activity level” value ([1]; Dosage 60 g a.i./ha) is reported as 9, the “Echinochloa crus-galli, activity level” value ([1]; Dosage 60 g a.i./ha) is reported as 8 (Level 8: growth control rate greater than or equal to 90% and less than 100%) and the “activity level (growth control rate), Digitaria sanguinalis” value [2, 3] is reported as 8 (Level 8: growth control rate greater than or equal to 90% and less than 100%). For the same molecule, the “activity level (growth control rate), Setaria viridis” value [2, 3] was 9 and the “activity level of plant damage … Zea mays” value [2, 3] was 0.
In the case of `C=C(C)[C@]1(C(=O)N[C@@H](C)C(=O)NOc2ccc(Cl)cc2)CC(c2cc(F)cc(F)c2)=NO1`, the “Digitaria sanguinalis, activity level” value ([1]; Dosage 60 g a.i./ha) is reported as 8 (Level 8: growth control rate greater than or equal to 90% and less than 100%), the “Echinochloa crus-galli, activity level” value ([1]; Dosage 60 g a.i./ha) is reported as 8 (Level 8: growth control rate greater than or equal to 90% and less than 100%) and the “activity level (growth control rate), Digitaria sanguinalis” value [2, 3] is reported as 9. The “activity level (growth control rate), Setaria viridis” value [2, 3] was 9.
`C=C(C)[C@]1(C(=O)N[C@@H](C)C(=O)NOCC(F)F)CC(c2cc(F)cc(F)c2)=NO1` was tested, and the “Digitaria sanguinalis, activity level” value ([1]; Dosage 60 g a.i./ha) was 8 (Level 8: growth control rate greater than or equal to 90% and less than 100%), the “Echinochloa crus-galli, activity level” value ([1]; Dosage 60 g a.i./ha) was 6 (Level 6: growth control rate greater than or equal to 70% and less than 80%) and the “activity level of plant damage (growth control rate), Digitaria sanguinalis” value [2] was 9. For the same molecule, the “activity level of plant damage (growth control rate), Lolium multiflorum” value ([2]; Lolium multiflorum) was 9 and the “activity level of plant damage … Setaria viridis” value [2] was 8 (Level 8: growth control rate greater than or equal to 90% and less than 100%).
In the case of `C=C(C)[C@]1(C(=O)N[C@@H](C)C(=O)NOc2ccccc2)CC(c2cc(F)cc(F)c2)=NO1`, the “Digitaria sanguinalis, activity level” value ([1]; Dosage 60 g a.i./ha) is reported as 8 (Level 8: growth control rate greater than or equal to 90% and less than 100%), the “Echinochloa crus-galli, activity level” value ([1]; Dosage 60 g a.i./ha) is reported as 5 (Level 5: growth control rate greater than or equal to 50% and less than 70%) and the “activity level of plant damage (growth control rate), Digitaria sanguinalis” value [2] is reported as 9. For the same molecule, the “activity level of plant damage (growth control rate), Lolium multiflorum” value ([2]; Lolium multiflorum) was 9 and the “activity level of plant damage … Setaria viridis” value [2] was 9.
In the case of `C=C(C)[C@]1(C(=O)N[C@@H](C)C(=O)NOCCCc2ccccc2)CC(c2cc(F)cc(F)c2)=NO1`, the “Amaranthus retroflexus, activity level of plant damage (growth control rate)” value ([1]; Dosage 60 g a.i./ha) is reported as 6 (Level 6: growth control rate greater than or equal to 70% and less than 80%), the “Digitaria sanguinalis, activity level” value ([1]; Dosage 60 g a.i./ha) is reported as 8 (Level 8: growth control rate greater than or equal to 90% and less than 100%) and the “Echinochloa crus-galli, activity level” value ([1]; Dosage 60 g a.i./ha) is reported as 8 (Level 8: growth control rate greater than or equal to 90% and less than 100%). For the same molecule, the “activity level (growth control rate), Digitaria sanguinalis” value [2, 3] was 8 (Level 8: growth control rate greater than or equal to 90% and less than 100%) and the “activity level (growth control rate), Setaria viridis” value [2, 3] was 8 (Level 8: growth control rate greater than or equal to 90% and less than 100%).
`C=C(C)[C@]1(C(=O)N[C@@H](C)C(=O)NOCCC)CC(c2cc(F)cc(F)c2)=NO1` was tested, and the “Digitaria sanguinalis, activity level” value ([1]; Dosage 60 g a.i./ha) was 8 (Level 8: growth control rate greater than or equal to 90% and less than 100%), the “Echinochloa crus-galli, activity level” value ([1]; Dosage 60 g a.i./ha) was 9 and the “activity level … Descurainia sophia” value [2] was 9. The “activity level of plant damage (growth control rate), Digitaria sanguinalis” value [2] was 9, the “activity level of plant damage (growth control rate), Lolium multiflorum” value ([2]; Lolium multiflorum) was 9 and the “activity level of plant damage … Setaria viridis” value [2] was 9.
For `CC[C@]1(C(=O)N[C@@H](C)C(=O)N(C)OC)CC(c2cc(F)cc(F)c2)=NO1`, the “Avena fatua, activity level” value ([1]; Dosage 240 g a.i./ha) was 9, the “activity level of plant damage (growth control rate), Digitaria sanguinalis” value [2] was 9 and the “activity level of plant damage (growth control rate), Lolium multiflorum” value ([2]; Lolium multiflorum) was 9. The “activity level of plant damage … Setaria viridis” value [2] was 9.
`C=C(C)[C@]1(C(=O)N[C@@H](C)C(=O)N(C)OCC)CC(c2cc(F)cc(F)c2)=NO1` was tested, and the “Digitaria sanguinalis, activity level” value ([1]; Dosage 120 g a.i./ha) was 9, the “activity level of plant damage (growth control rate), Digitaria sanguinalis” value [2] was 9 and the “activity level of plant damage … Setaria viridis” value [2] was 9.
`C=C(C)[C@]1(C(=O)N[C@@H](C)C(=O)NOCCCC)CC(c2cc(F)cc(F)c2)=NO1` was tested, and the “Digitaria sanguinalis, activity level” value ([1]; Dosage 60 g a.i./ha) was 9, the “Echinochloa crus-galli, activity level” value ([1]; Dosage 60 g a.i./ha) was 8 (Level 8: growth control rate greater than or equal to 90% and less than 100%) and the “activity level … Descurainia sophia” value [2] was 6 (Level 6: growth control rate greater than or equal to 70% and less than 80%). For the same molecule, the “activity level of plant damage (growth control rate), Digitaria sanguinalis” value [2] was 9, the “activity level of plant damage (growth control rate), Lolium multiflorum” value ([2]; Lolium multiflorum) was 9 and the “activity level of plant damage … Setaria viridis” value [2] was 9.
For `C=C(C)[C@]1(C(=O)NC(C(=O)NOCC)C2CC2)CC(c2cc(F)cc(F)c2)=NO1` (some centres unmarked), the “Digitaria sanguinalis, activity level” value ([1]; Dosage 60 g a.i./ha) was 8 (Level 8: growth control rate greater than or equal to 90% and less than 100%), the “Echinochloa crus-galli, activity level” value ([1]; Dosage 60 g a.i./ha) was 9 and the “activity level … Descurainia sophia” value [2] was 6 (Level 6: growth control rate greater than or equal to 70% and less than 80%). The “activity level of plant damage (growth control rate), Digitaria sanguinalis” value [2] was 9, the “activity level of plant damage (growth control rate), Lolium multiflorum” value ([2]; Lolium multiflorum) was 8 (Level 8: growth control rate greater than or equal to 90% and less than 100%) and the “activity level of plant damage … Setaria viridis” value [2] was 9.
